Laboratory results from PMC11272584 (Nature Metabolism, 2024).
Numbering of substitutions follows the chain as printed.

Key:
[1] = target: T1, GIPR L304R (Homo sapiens, UniProt P48546, L304R); conditions: GIPR L304R (5.44), mean, n = 4, duplicate
T1 sequence (P48546 22-466 L304R): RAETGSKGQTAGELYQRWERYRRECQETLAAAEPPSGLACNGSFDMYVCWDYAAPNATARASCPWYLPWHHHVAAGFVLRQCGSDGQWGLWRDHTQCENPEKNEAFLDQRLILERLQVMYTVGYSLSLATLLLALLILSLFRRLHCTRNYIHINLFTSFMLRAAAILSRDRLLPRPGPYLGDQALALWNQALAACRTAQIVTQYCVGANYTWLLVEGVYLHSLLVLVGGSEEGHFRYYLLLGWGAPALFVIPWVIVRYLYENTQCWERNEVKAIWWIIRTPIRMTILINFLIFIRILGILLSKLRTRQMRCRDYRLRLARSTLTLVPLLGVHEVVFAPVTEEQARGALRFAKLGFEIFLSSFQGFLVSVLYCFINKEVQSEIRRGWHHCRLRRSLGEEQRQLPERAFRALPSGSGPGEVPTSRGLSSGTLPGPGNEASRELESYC

[2] = target: T2, GIPR R43G (Homo sapiens, UniProt P48546, R43G); experiment: cAMP accumulation; assay type: cell-based; set-up: host or cells: HEK293
T2 sequence (P48546 22-466 R43G): T1 sequence (P48546 22-466 L304R) with R22G, R283L

[3] = target: T3, GIPR T25R (Homo sapiens, UniProt P48546, T25R); experiment: Homologous competition binding; set-up: host or cells: HEK293
T3 sequence (P48546 22-466 T25R): T1 sequence (P48546 22-466 L304R) with T4R, R283L

[4] = target: T4, GIPR G144S (Homo sapiens, UniProt P48546, G144S); experiment: cAMP accumulation; assay type: cell-based
T4 construct: host or cells: HEK293

[5] = target: T5, GIPR K397N (Homo sapiens, UniProt P48546, K397N); conditions: GIPR K397N (ICD), mean, n = 3, duplicate
T5 sequence (P48546 22-466 K397N): T1 sequence (P48546 22-466 L304R) with R283L, K376N

[6] = target: T1, GIPR L304R; experiment: cAMP accumulation; assay type: cell-based; set-up: host or cells: HEK293
[7] = target: T6, GIPR H166Y (Homo sapiens, UniProt P48546, H166Y); experiment: cAMP accumulation; assay type: cell-based; set-up: host or cells: HEK293
T6 sequence (P48546 22-466 H166Y): T1 sequence (P48546 22-466 L304R) with H145Y, R283L

[8] = HEK293, GIP(1–42) 1 pM–100 nM, 30 min 37 °C, mean of n = 3
[9] = HEK293, Hill slope 1.0, mean of n = 3

## glucose-dependent insulinotropic polypeptide [GIP]
[1]; Hill slope 1.0
  logEC50 (Arrestin): -9.4
[1]; normalized to WT GIPR
  Arrestin (Emax): 13
[2]; HEK293, GIP(1–42) 1 pM–100 nM, 30 min 37 °C, mean of n = 5
  cAMP (Emax): 131 % of WT GIPR activity
[2]; HEK293, Hill slope 1.0, mean of n = 5
  logEC50 (cAMP): -11.2
[3]
  Bmax: 25%
[4]; [8]
  cAMP (Emax): 130 % of WT GIPR activity
[4]; [9]
  logEC50 (cAMP): -9.2
[5]; Hill slope 1.0
  logEC50 (Arrestin): -8.9
[5]; normalized to WT GIPR
  Arrestin (Emax): 38
[6]; HEK293, GIP(1–42) 1 pM–100 nM, 30 min 37 °C, mean of n = 7
  cAMP (Emax): 37 % of WT GIPR activity
[6]; HEK293, Hill slope 1.0, mean of n = 7
  logEC50 (cAMP): -10.1
[7]; [8]
  cAMP (Emax): 129 % of WT GIPR activity
[7]; [9]
  logEC50 (cAMP): -10.6
